Measurements as given in patent publication US12534450B2, “Methods and compositions for targeting PD-L1” (Aligos Therapeutics, Inc., priority 2021, dated 2026).

By UniProt entry, the sequences of proteins in these tests, tags left out. Residues count along the entry.
UniProt Q9NZQ7, 19-238 limits assumed: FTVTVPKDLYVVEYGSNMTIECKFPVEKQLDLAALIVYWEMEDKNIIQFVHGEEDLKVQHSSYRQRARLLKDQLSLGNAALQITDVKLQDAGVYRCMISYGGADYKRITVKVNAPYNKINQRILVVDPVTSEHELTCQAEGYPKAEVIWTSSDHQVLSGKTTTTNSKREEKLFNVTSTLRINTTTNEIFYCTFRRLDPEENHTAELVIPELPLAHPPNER

Legend:
PD-1/PD-L1 interaction = experiment: PD-1/PD-L1 NFAT Reporter Assay (co-culture of Jurkat T cells overexpressing PD-1 and PD-L1 expressing CHO cells); details: read-out: Jurkat NFAT EC50; co-culture 6 hrs at 37° C., NFAT-mediated luciferase activity
Protocol: Blocking the PD-1/PD-L1 interaction will release the inhibitory signal and results in TCR signaling and NFAT-mediated luciferase activity.
CHO cells expressing surface-bound anti-CD3 antibodies and PD-L1 were first seeded overnight and treated with the compounds. Jurkat cells overexpressing PD-1 and a luciferase construct under NFAT promoter were then immediately seeded on the monolayer of CHO cells. The co-culture was then incubated for 6 hrs at 37° C. Luciferase activity was assessed by adding the ONE-Glo reagent and measuring luminescence with a plate reader. EC50 values were determined from the fit of the dose-response curves.

PD-1/PD-L1 PPI = PD-1/PD-L1 PPI (Homo sapiens, UniProt Q9NZQ7); experiment: PDL1/PD1 Binding Assay; details: read-out: PD-1/PD-L1 PPI IC50; PDL1-6×His 0.3 nM, PD1-Fc-Avi-Biotin 2.5 nM, Acceptor/Donor beads, Envision reader
Protocol: Compounds to be tested were serially diluted in DMSO, and further diluted in assay buffer (25 mM Hepes pH 7.4, 150 mM NaCl, 0.005% Tween 20, BSA 0.01%). Diluted compounds were added to the wells with final concentration of DMSO at 1%. PDL1-6×His protein was added to the wells, mixed well with compound. The plates were incubated for 30 min at room temperature. PD1-Fc-Avi-Biotin protein was added to the wells. Final concentration of PDL1 and PD1 protein is 0.3 nM and 2.5 nM, respectively. After a binding time of 30 min at room temperature, Anti-6×His Acceptor beads (final concentration 20 ug/ml) were added to the wells, and the incubation continued for 1 h. Streptavidin Donor beads (final concentration 20 ug/mL) were added at reduced light. The plates were sealed with foil and incubated in the dark for additional 1 h or overnight before reading on an Envision reader. The IC50 values were determined by fitting the curves using a four-parameter equation in Graphpad Prism 8.

Row | EC50 (PD-1/PD-L1 interaction) [nM] | IC50 (PD-1/PD-L1 PPI) [nM] | Structure (SMILES)
1 | < 10 | < 10 | COc1nc(-c2cccc(-c3cccc(NC(=O)c4cn(C)c(=O)n(C)c4=O)c3Cl)c2Cl)cc2c1C(NC[C@@H]1CCC(=O)N1)CO2 (stereo partly drawn)
2 | > 10000 | < 10 | CCOC(=O)N(C[C@@H]1CCC(=O)N1)C1COc2cc(-c3cccc(-c4cccc(NC(=O)c5cn(C)c(=O)n(C)c5=O)c4C)c3Cl)nc(OC)c21 (stereo partly drawn)
3 | < 10 | < 10 | COc1nc(-c2cccc(-c3cccc(NC(=O)c4nn(C)c(=O)n(C)c4=O)c3C)c2Cl)cc2c1C(N[C@@H]1CCOC[C@H]1O)CC2 (stereo partly drawn)
